## CycPeptMPDB entries from one study

Data: CycPeptMPDB; original report Kelly et al. 2021, doi:10.1021/jacs.0c06115.

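Lipid, pH, incubation time, direction and concentration are not recorded in the data file. The list need not hold all peptides of the study. Peptides that the database sets to -10, its floor, are left out.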

PAMPA is the parallel artificial membrane permeability assay, which has no cells and reads passive diffusion.
P is given in units of 10^-6 cm/s (from log10 values with two decimals); larger means faster passage.

CC(=O)N[C@@H]1C(=O)N2CCC[C@H]2C(=O)N(C)[C@H](CC(C)C)C(=O)N[C@H](CC(C)C)C(=O)N[C@H](CC(C)C)C(=O)N(C)[C@@H](CC(C)C)C(=O)N(C)[C@@H](C)C(=O)N[C@@H](CC(C)C)C(=O)N2CCC[C@@H]2C(=O)O[C@@H]1C has PAMPA 0.58 × 10^-6 cm/s.
CC(=O)N1CCC[C@@H]1C(=O)N(C)[C@H](CC(C)C)C(=O)N[C@@H]1C(=O)N[C@@H](CC(C)C)C(=O)N[C@@H](CC(C)C)C(=O)N[C@H](CC(C)C)C(=O)N(C)[C@H](C)C(=O)N[C@H](CC(C)C)C(=O)N2CCC[C@H]2C(=O)O[C@@H]1C has PAMPA 0.46 × 10^-6 cm/s.
CC(=O)N1CCC[C@H]1C(=O)N(C)[C@@H](CC(C)C)C(=O)N[C@@H]1C(=O)N(C)[C@@H](CC(C)C)C(=O)N(C)[C@@H](CC(C)C)C(=O)N(C)[C@@H](CC(C)C)C(=O)N(C)[C@H](C)C(=O)N[C@H](CC(C)C)C(=O)N2CCC[C@@H]2C(=O)O[C@@H]1C has PAMPA 0.56 × 10^-6 cm/s.
CC(=O)N1CCC[C@H]1C(=O)N[C@@H]1C(=O)N[C@H](CC(C)C)C(=O)N[C@H](CC(C)C)C(=O)N[C@@H](CC(C)C)C(=O)N[C@@H](CC(C)C)C(=O)N[C@@H](C)C(=O)N[C@@H](CC(C)C)C(=O)N2CCC[C@@H]2C(=O)O[C@@H]1C has PAMPA 0.21 × 10^-6 cm/s.
CC(=O)N1CCC[C@H]1C(=O)N(C)[C@@H](CC(C)C)C(=O)N[C@@H]1C(=O)N[C@@H](CC(C)C)C(=O)N(C)[C@H](CC(C)C)C(=O)N[C@H](CC(C)C)C(=O)N(C)[C@H](C)C(=O)N[C@H](CC(C)C)C(=O)N2CCC[C@@H]2C(=O)O[C@@H]1C has PAMPA 0.37 × 10^-6 cm/s.
CC(=O)N1CCC[C@H]1C(=O)N(C)[C@@H](CC(C)C)C(=O)N[C@@H]1C(=O)N(C)[C@H](CC(C)C)C(=O)N(C)[C@@H](CC(C)C)C(=O)N(C)[C@@H](CC(C)C)C(=O)N[C@@H](C)C(=O)N[C@H](CC(C)C)C(=O)N2CCC[C@H]2C(=O)O[C@@H]1C has PAMPA 9.8 × 10^-6 cm/s.
CC(=O)N1CCC[C@@H]1C(=O)N(C)[C@H](CC(C)C)C(=O)N[C@@H]1C(=O)N[C@H](CC(C)C)C(=O)N(C)[C@@H](CC(C)C)C(=O)N[C@@H](CC(C)C)C(=O)N(C)[C@@H](C)C(=O)N[C@H](CC(C)C)C(=O)N2CCC[C@H]2C(=O)O[C@@H]1C has PAMPA 8.5 × 10^-6 cm/s.
CC(=O)N1CCC[C@@H]1C(=O)N(C)[C@H](CC(C)C)C(=O)N[C@@H]1C(=O)N[C@H](CC(C)C)C(=O)N(C)[C@H](CC(C)C)C(=O)N[C@@H](CC(C)C)C(=O)N(C)[C@@H](C)C(=O)N[C@H](CC(C)C)C(=O)N2CCC[C@H]2C(=O)O[C@@H]1C has PAMPA 7.6 × 10^-6 cm/s.
CC(=O)N1CCC[C@@H]1C(=O)N(C)[C@@H](CC(C)C)C(=O)N[C@@H]1C(=O)N(C)[C@@H](CC(C)C)C(=O)N[C@@H](CC(C)C)C(=O)N[C@@H](CC(C)C)C(=O)N(C)[C@@H](C)C(=O)N[C@@H](CC(C)C)C(=O)N2CCC[C@@H]2C(=O)O[C@@H]1C has PAMPA 0.44 × 10^-6 cm/s.
CC(=O)N1CCC[C@H]1C(=O)N(C)[C@@H](CC(C)C)C(=O)N[C@@H]1C(=O)N[C@@H](CC(C)C)C(=O)N[C@@H](CC(C)C)C(=O)N(C)[C@@H](CC(C)C)C(=O)N(C)[C@@H](C)C(=O)N[C@H](CC(C)C)C(=O)N2CCC[C@@H]2C(=O)O[C@@H]1C has PAMPA 0.17 × 10^-6 cm/s.
CC(=O)N1CCC[C@H]1C(=O)N[C@@H]1C(=O)N(C)[C@H](CC(C)C)C(=O)N[C@@H](CC(C)C)C(=O)N(C)[C@H](CC(C)C)C(=O)N[C@H](CC(C)C)C(=O)N(C)[C@H](C)C(=O)N[C@@H](CC(C)C)C(=O)N2CCC[C@@H]2C(=O)O[C@@H]1C has PAMPA 10 × 10^-6 cm/s.
CC(=O)N1CCC[C@H]1C(=O)N(C)[C@@H](CC(C)C)C(=O)N[C@@H]1C(=O)N[C@@H](CC(C)C)C(=O)N(C)[C@@H](CC(C)C)C(=O)N(C)[C@@H](CC(C)C)C(=O)N(C)[C@H](C)C(=O)N[C@@H](CC(C)C)C(=O)N2CCC[C@H]2C(=O)O[C@@H]1C has PAMPA 0.87 × 10^-6 cm/s.
CC(=O)N1CCC[C@@H]1C(=O)N(C)[C@H](CC(C)C)C(=O)N[C@@H]1C(=O)N[C@@H](CC(C)C)C(=O)N[C@@H](CC(C)C)C(=O)N(C)[C@@H](CC(C)C)C(=O)N(C)[C@@H](C)C(=O)N[C@@H](CC(C)C)C(=O)N2CCC[C@@H]2C(=O)O[C@@H]1C has PAMPA 0.49 × 10^-6 cm/s.
CC(=O)N1CCC[C@H]1C(=O)N(C)[C@H](CC(C)C)C(=O)N[C@@H]1C(=O)N(C)[C@@H](CC(C)C)C(=O)N(C)[C@H](CC(C)C)C(=O)N(C)[C@H](CC(C)C)C(=O)N(C)[C@H](C)C(=O)N[C@H](CC(C)C)C(=O)N2CCC[C@@H]2C(=O)O[C@@H]1C has PAMPA 4.3 × 10^-6 cm/s.
CC(=O)N1CCC[C@H]1C(=O)N[C@@H]1C(=O)N(C)[C@H](CC(C)C)C(=O)N[C@H](CC(C)C)C(=O)N(C)[C@@H](CC(C)C)C(=O)N[C@@H](CC(C)C)C(=O)N(C)[C@H](C)C(=O)N[C@@H](CC(C)C)C(=O)N2CCC[C@@H]2C(=O)O[C@@H]1C has PAMPA 2.8 × 10^-6 cm/s.
CC(=O)N1CCC[C@@H]1C(=O)N(C)[C@H](CC(C)C)C(=O)N[C@@H]1C(=O)N[C@H](CC(C)C)C(=O)N[C@H](CC(C)C)C(=O)N(C)[C@@H](CC(C)C)C(=O)N(C)[C@@H](C)C(=O)N[C@@H](CC(C)C)C(=O)N2CCC[C@@H]2C(=O)O[C@@H]1C has PAMPA 5.6 × 10^-6 cm/s.
CC(=O)N[C@@H]1C(=O)N2CCC[C@H]2C(=O)N(C)[C@H](CC(C)C)C(=O)N[C@@H](CC(C)C)C(=O)N[C@@H](CC(C)C)C(=O)N[C@@H](CC(C)C)C(=O)N(C)[C@@H](C)C(=O)N[C@@H](CC(C)C)C(=O)N2CCC[C@@H]2C(=O)O[C@@H]1C has PAMPA 0.28 × 10^-6 cm/s.
CC(=O)N1CCC[C@H]1C(=O)N[C@@H]1C(=O)N[C@H](CC(C)C)C(=O)N[C@@H](CC(C)C)C(=O)N[C@@H](CC(C)C)C(=O)N[C@@H](CC(C)C)C(=O)N(C)[C@H](C)C(=O)N[C@@H](CC(C)C)C(=O)N2CCC[C@@H]2C(=O)O[C@@H]1C has PAMPA 0.083 × 10^-6 cm/s.
CC(=O)N1CCC[C@@H]1C(=O)N(C)[C@H](CC(C)C)C(=O)N[C@@H]1C(=O)N(C)[C@@H](CC(C)C)C(=O)N[C@@H](CC(C)C)C(=O)N(C)[C@@H](CC(C)C)C(=O)N[C@@H](C)C(=O)N[C@H](CC(C)C)C(=O)N2CCC[C@H]2C(=O)O[C@@H]1C has PAMPA 0.66 × 10^-6 cm/s.
CC(=O)N1CCC[C@H]1C(=O)N(C)[C@H](CC(C)C)C(=O)N[C@@H]1C(=O)N[C@H](CC(C)C)C(=O)N(C)[C@H](CC(C)C)C(=O)N[C@H](CC(C)C)C(=O)N(C)[C@H](C)C(=O)N[C@@H](CC(C)C)C(=O)N2CCC[C@H]2C(=O)O[C@@H]1C has PAMPA 4 × 10^-6 cm/s.
CC(=O)N1CCC[C@H]1C(=O)N[C@@H]1C(=O)N[C@H](CC(C)C)C(=O)N[C@H](CC(C)C)C(=O)N[C@@H](CC(C)C)C(=O)N(C)[C@@H](CC(C)C)C(=O)N(C)[C@@H](C)C(=O)N[C@@H](CC(C)C)C(=O)N2CCC[C@@H]2C(=O)O[C@@H]1C has PAMPA 0.69 × 10^-6 cm/s.
CC(=O)N1CCC[C@@H]1C(=O)N(C)[C@H](CC(C)C)C(=O)N[C@@H]1C(=O)N(C)[C@@H](CC(C)C)C(=O)N[C@@H](CC(C)C)C(=O)N[C@@H](CC(C)C)C(=O)N[C@@H](C)C(=O)N[C@H](CC(C)C)C(=O)N2CCC[C@@H]2C(=O)O[C@@H]1C has PAMPA 0.002 × 10^-6 cm/s.
CC(=O)N1CCC[C@H]1C(=O)N[C@@H]1C(=O)N[C@H](CC(C)C)C(=O)N[C@@H](CC(C)C)C(=O)N[C@H](CC(C)C)C(=O)N[C@H](CC(C)C)C(=O)N(C)[C@H](C)C(=O)N[C@@H](CC(C)C)C(=O)N2CCC[C@@H]2C(=O)O[C@@H]1C has PAMPA 5.8 × 10^-6 cm/s.
CC(=O)N1CCC[C@H]1C(=O)N[C@@H]1C(=O)N(C)[C@H](CC(C)C)C(=O)N(C)[C@H](CC(C)C)C(=O)N(C)[C@@H](CC(C)C)C(=O)N[C@@H](CC(C)C)C(=O)N(C)[C@@H](C)C(=O)N[C@@H](CC(C)C)C(=O)N2CCC[C@@H]2C(=O)O[C@@H]1C has PAMPA 8.1 × 10^-6 cm/s.

A selection of 3 entries from above:

{"smiles": "CC(=O)N1CCC[C@H]1C(=O)N(C)[C@@H](CC(C)C)C(=O)N[C@@H]1C(=O)N(C)[C@@H](CC(C)C)C(=O)N(C)[C@@H](CC(C)C)C(=O)N(C)[C@@H](CC(C)C)C(=O)N(C)[C@H](C)C(=O)N[C@H](CC(C)C)C(=O)N2CCC[C@@H]2C(=O)O[C@@H]1C", "PAMPA (10^-6 cm/s)": "0.56"}
{"smiles": "CC(=O)N1CCC[C@H]1C(=O)N[C@@H]1C(=O)N(C)[C@H](CC(C)C)C(=O)N(C)[C@H](CC(C)C)C(=O)N(C)[C@@H](CC(C)C)C(=O)N[C@@H](CC(C)C)C(=O)N(C)[C@@H](C)C(=O)N[C@@H](CC(C)C)C(=O)N2CCC[C@@H]2C(=O)O[C@@H]1C", "PAMPA (10^-6 cm/s)": "8.1"}
{"smiles": "CC(=O)N[C@@H]1C(=O)N2CCC[C@H]2C(=O)N(C)[C@H](CC(C)C)C(=O)N[C@@H](CC(C)C)C(=O)N[C@@H](CC(C)C)C(=O)N[C@@H](CC(C)C)C(=O)N(C)[C@@H](C)C(=O)N[C@@H](CC(C)C)C(=O)N2CCC[C@@H]2C(=O)O[C@@H]1C", "PAMPA (10^-6 cm/s)": "0.28"}